Consider one substance from patent publication US9938516B2, “Non-natural amino acid tRNA synthetases for para-methylazido-L-phenylalanine” (SUTRO BIOPHARMA, INC., priority 2013, dated 2018).

The experiment relates to Her2-positive breast cancer cell line SKBR3. Kind of experiment: cell-based proliferation (cytotoxicity) assay, Cell Titer-Glo. The settings on record: SKBR3 cells, 120 hrs, at the concentrations tested. The method, then:
The cell killing activity (cytotoxicity) of the conjugated ADC was measured using a cell-based proliferation assay. The Her2-positive breast cancer cell line SKBR3 was obtained from ATCC and maintained in DMEM/Nutrient F-12 Ham (50:50), high glucose (Cellgro-Mediatech; Manassas, Va.) supplemented with 10% heat-inactivated fetal bovine serum (Hyclone; Thermo Scientific; Waltham, Mass.), 2 mM glutamax (Invitrogen; Carlsbad, Calif.) and 1× Pencillin/streptomycin (Cellgro-Mediatech; Manassas, Va.). Adherent cells were washed twice with calcium and magnesium-free Phosphate Balanced Saline (PBS) and harvested with HYQ® SE™ (Hyclone; Thermo Scientific; Waltham, Mass.). A total of 1×10^3 or 3×10^3 cells in a volume of 40 ml were seeded in each well of a 96-well half area flat bottom white polystyrene plate. The cells were allowed to adhere overnight at 37° C. in a CO2 incubator. ADC variants were formulated at 2× concentration in DMEM/F12, medium and filtered through sterile SpinX cellulose acetate filtered 2 ml centritube (Corning Costar, Cat#8160). 40 μl of filter-sterilized ADCs were added into treatment wells and plates were cultured at 37° C. in a CO2 incubator for 120 hrs. […] Relative luminescence was measured on an ENVISION® plate reader (Perkin-Elmer; Waltham, Mass.). Relative luminescence readings were converted to % viability using untreated cells as controls. […]

As for “trastuzumab: Her2-specific monoclonal antibody; unconjugated control”, the cell killing result is “ineffective”.
